Data: patent US6420532B1, “Method of obtaining compositions comprising Y2 specific compounds” (Synaptic Pharmaceutical Corporation, priority 1994, dated 2002)

Sequences of proteins named here, by UniProt entry; tags and fusion partners are left off. Residues count along the entry.
UniProt P49146, whole entry: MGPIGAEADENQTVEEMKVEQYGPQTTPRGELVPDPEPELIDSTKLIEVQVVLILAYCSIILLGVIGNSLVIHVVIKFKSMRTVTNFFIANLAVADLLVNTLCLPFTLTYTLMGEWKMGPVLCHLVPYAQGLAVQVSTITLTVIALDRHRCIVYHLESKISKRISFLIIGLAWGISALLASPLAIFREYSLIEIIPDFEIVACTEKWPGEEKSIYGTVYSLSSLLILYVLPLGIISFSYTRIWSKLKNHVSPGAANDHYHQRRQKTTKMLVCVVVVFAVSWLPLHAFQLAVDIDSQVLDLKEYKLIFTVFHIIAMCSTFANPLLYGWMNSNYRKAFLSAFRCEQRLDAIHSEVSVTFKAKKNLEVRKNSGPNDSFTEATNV
UniProt P25929, whole entry: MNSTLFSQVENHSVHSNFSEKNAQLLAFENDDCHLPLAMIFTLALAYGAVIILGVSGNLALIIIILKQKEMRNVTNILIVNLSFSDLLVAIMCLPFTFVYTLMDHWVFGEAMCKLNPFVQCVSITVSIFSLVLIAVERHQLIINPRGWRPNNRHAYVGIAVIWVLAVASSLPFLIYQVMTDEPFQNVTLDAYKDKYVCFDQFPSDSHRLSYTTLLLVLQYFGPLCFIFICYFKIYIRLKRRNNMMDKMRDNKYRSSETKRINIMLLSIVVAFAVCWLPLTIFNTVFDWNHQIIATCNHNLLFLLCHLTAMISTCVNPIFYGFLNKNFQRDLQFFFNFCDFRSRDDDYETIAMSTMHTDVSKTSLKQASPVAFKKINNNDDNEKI
UniProt Q9ERC0, 1-381 L20F/T266M: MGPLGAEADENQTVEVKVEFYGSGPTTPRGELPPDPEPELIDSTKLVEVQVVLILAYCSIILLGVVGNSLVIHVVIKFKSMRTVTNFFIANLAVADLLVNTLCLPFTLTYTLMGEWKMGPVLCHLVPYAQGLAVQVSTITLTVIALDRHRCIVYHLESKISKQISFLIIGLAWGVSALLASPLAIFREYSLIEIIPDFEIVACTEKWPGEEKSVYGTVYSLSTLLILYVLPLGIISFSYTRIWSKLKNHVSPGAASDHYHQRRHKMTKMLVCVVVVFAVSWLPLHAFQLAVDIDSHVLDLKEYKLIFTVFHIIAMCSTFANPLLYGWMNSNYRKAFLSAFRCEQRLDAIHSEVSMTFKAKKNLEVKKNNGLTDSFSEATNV

Tests used:
[1] = target: T1, CG-13 receptors (human Y2 receptor) (Homo sapiens, UniProt P49146); assay: Association time course and saturation binding of 125I-PYY, COS-7 membranes expressing CG-13; conditions: 0.06 nM 125I-PYY
T1 construct: expressed in transfected cells; host or cells: COS-7 (transient, DEAE-dextran)

human Y1 receptors = target: T2, human Y1 receptors (Homo sapiens, UniProt P25929); assay: Association time course and saturation binding of 125I-PYY, COS-7 membranes expressing human Y1
T2 construct: expressed in transfected cells; host or cells: COS-7 (transient, DEAE-dextran)

rat Y2b receptor = target: T3, rat Y2b receptor (Rattus norvegicus, UniProt Q9ERC0, L20F/T266M); assay: Specific binding of 125I-PYY, COS-7 membranes expressing rat Y2b; conditions: 0.08 nM 125I-PYY, 30° C., 120 min
T3 construct: rs26a also encoded a full-length rat Y2 receptor; expressed in transfected cells; host or cells: COS-7 (transient); 3.9 kb SalI/KpnI genomic fragment of rs26a in EXJ.HR
Text: The rat Y2b clone, which differs from rat Y2a by two amino acid changes one in the N-terminal tail (from Leu^20 to Phe^20) and another in the third intracellular loop (from Thr^266 to Met^266), has been subjected only to a preliminary investigation. […] It remains to be determined whether there exist any pharmacological or functional differences between the rat Y2a and rat Y2b receptors.

^125I-PYY
Kobs, slow phase [1]: 0.02 ± 0.00 min⁻¹
observed association constant (Kobs), rapid phase [1]: 1.28 ± 0.02 min⁻¹
Kobs (monophasic) (human Y1 receptors): 0.06 ± 0.02 min⁻¹
125I-PYY bound (rat Y2b receptor): 310 fmol/mg membrane protein
